## scFv variants of Ab-14 (light chain) against a SARS-CoV-2 spike peptide

The target is the same throughout: PDVDLGDISGINAS, from the HR2 region of SARS-CoV-2 spike.

The variants keep the heavy chain, the linker and the frameworks of Ab-14 (scFv order VH, a 15-residue (Gly4Ser)3 linker, VL).
VH: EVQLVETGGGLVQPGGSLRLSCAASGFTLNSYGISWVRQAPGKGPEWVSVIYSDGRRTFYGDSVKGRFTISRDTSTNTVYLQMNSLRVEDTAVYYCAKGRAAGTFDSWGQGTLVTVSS
VL: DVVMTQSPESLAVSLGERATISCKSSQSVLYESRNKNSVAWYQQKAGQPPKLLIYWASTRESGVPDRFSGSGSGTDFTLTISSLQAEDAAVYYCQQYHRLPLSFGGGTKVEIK

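Phage display of a naive human antibody library on the peptide gave the parent. Variants in AAYL50 differ from the parent at up to three CDR positions; double and triple changes were sampled at random. The assay is AlphaSeq: two haploid yeast populations carry antibody and antigen on their surface. Mating (16 h, 30 °C) was followed by selection of diploids and sequencing of their barcodes. Scores were corrected for input abundance and mapped to Kd with protein pairs of known affinity run in the same pool. Mating was done three times.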

Positions count from residue 1 of the parent VL; T59G puts G in place of T.
Numbers give log10(Kd / nM), so 0 is 1 nM and 3 is 1 µM. Smaller is tighter.
Averages over replicates are reported, and they cover detected replicates only.
"nd" means that the variant was in the library but no mating with the target was seen in that replicate; the authors take this as a sign of poor binding, and no number exists.

Variant T59G Q95Y S103C gave nd, nd, nd (controls 1 of 9).
Variant S28H E32M N35V gave nd, 2.99, nd (controls 3 of 9).
Variant L30I E32A gave 3.86, 4.08, nd (mean 3.97; controls 2 of 9).
Variant N35I R60L L102W gave 2.05, 2.04, 3.02 (mean 2.37; controls 0 of 9).
Variant A40W T59F Q96I gave nd, nd, nd (controls 2 of 9).
Variant L30Q S38A P101Y gave 4.38, nd, nd (controls 0 of 9).
Variant S33M H98W L102D gave 2.70, 2.27, nd (mean 2.49; controls 2 of 9).
Variant E32W Q95C R99P gave 4.31, nd, nd (controls 0 of 9).
Variant Q27S S33F gave 2.24, 2.02, 1.95 (mean 2.07; controls 5 of 9).
Variant S25E S26V Q27E gave 1.03, 1.22, 1.05 (mean 1.10; controls 2 of 9).
Variant V39E H98T gave nd, 3.24, nd (controls 0 of 9).
Variant H98R S103E gave nd, nd, nd (controls 0 of 9).
Variant L30F N35I Y97V gave nd, nd, nd (controls 0 of 9).
Variant N35W S38G W56D gave 0.00, 0.32, 0.22 (mean 0.18; controls 4 of 9).
Variant N35I Y97P L102A gave nd, nd, 4.81 (controls 2 of 9).
Variant K36P V39S A40Y gave nd, nd, nd (controls 4 of 9).
Variant R34C Q95I Y97R gave 2.05, 2.21, 2.43 (mean 2.23; controls 3 of 9).
Variant S28H L30K R34G gave nd, 2.45, nd (controls 1 of 9).
Variant S38G gave 1.53, 2.08, 1.58 (mean 1.73; controls 4 of 9).
Variant S25G A57T T59D gave 3.88, 3.34, 3.47 (mean 3.56; controls 3 of 9).
Variant E32S R34S N37I gave 3.82, 3.13, 4.04 (mean 3.66; controls 3 of 9).
Variant K36D N37M gave 3.12, 2.95, 2.19 (mean 2.75; controls 2 of 9).
Variant Q27L W56H S103E gave 1.45, 1.65, 1.46 (mean 1.52; controls 4 of 9).
Variant R34I R99M S103A gave nd, nd, nd (controls 0 of 9).
Variant S28M H98D L100Q gave 1.81, 1.81, 1.77 (mean 1.80; controls 2 of 9).
Variant Q27S N35G T59H gave 1.79, 1.70, 1.88 (mean 1.79; controls 2 of 9).
Variant S26P W56N R99Q gave 0.40, 0.59, 0.51 (mean 0.50; controls 4 of 9).
Variant Q27M E32Q A57W gave nd, nd, nd (controls 0 of 9).
Variant L30I N37P Q95V gave 4.22, nd, 4.08 (mean 4.15; controls 5 of 9).
Variant S38G W56S Y97R gave 0.06, 0.39, 0.19 (mean 0.21; controls 1 of 9).
Variant Q27R S33N R99Q gave 1.15, 1.52, 2.52 (mean 1.73; controls 0 of 9).
Variant S62N Q95S P101C gave 2.93, 3.15, 3.32 (mean 3.13; controls 3 of 9).
Variant V29M S38D Y97W gave nd, 4.42, 5.11 (mean 4.76; controls 6 of 9).
Variant E32R K36T T59A gave 1.74, 1.78, 2.16 (mean 1.89; controls 0 of 9).
Variant L30V R34G P101I gave nd, 3.37, 3.63 (mean 3.50; controls 0 of 9).
Variant Q27N S58M R60S gave nd, 5.32, 4.70 (mean 5.01; controls 2 of 9).
Variant A57M P101L gave 2.89, 2.30, 2.92 (mean 2.70; controls 0 of 9).
Variant S38M gave nd, 2.93, nd (controls 1 of 9).
Variant S25H S58E S103G gave 3.61, nd, nd (controls 0 of 9).
Variant S25V V29R A40H gave nd, nd, nd (controls 1 of 9).
Variant K36A Q96H gave 1.47, 1.72, 1.85 (mean 1.68; controls 1 of 9).
Variant S28M A40I E61L gave nd, nd, nd (controls 0 of 9).
Variant S25M S26Y A57K gave 1.74, 1.76, 1.84 (mean 1.78; controls 1 of 9).
Variant V39C R60M Q95V gave nd, 4.68, nd (controls 3 of 9).
Variant S33H R60N Q95R gave nd, nd, 3.82 (controls 2 of 9).
Variant S38H A40I S103K gave nd, nd, nd (controls 0 of 9).
Variant A57M S58G Q96F gave 3.03, 3.96, nd (mean 3.50; controls 4 of 9).
Variant K24G V29I R60H gave 3.73, nd, nd (controls 1 of 9).
Variant Q27T S28E P101D gave nd, nd, nd (controls 0 of 9).
Variant K24V R60W gave nd, nd, nd (controls 0 of 9).
Variant Q27D S33D S62M gave 0.70, 0.96, 1.10 (mean 0.92; controls 2 of 9).

Excerpt, the final 7 entries:

With S33H R60N Q95R the result was nd, nd, 3.82 (controls 2 of 9).
With S38H A40I S103K the result was nd, nd, nd (controls 0 of 9).
With A57M S58G Q96F the result was 3.03, 3.96, nd (mean 3.50; controls 4 of 9).
With K24G V29I R60H the result was 3.73, nd, nd (controls 1 of 9).
With Q27T S28E P101D the result was nd, nd, nd (controls 0 of 9).
With K24V R60W the result was nd, nd, nd (controls 0 of 9).
With Q27D S33D S62M the result was 0.70, 0.96, 1.10 (mean 0.92; controls 2 of 9).

As a blank, each scFv also met three strains without target: over library AAYL50, 18% of these pairings were detected, typically at 4.19 and seldom below 2.99. Also given: how often the same scFv was detected with the empty control strains.
In this assay the parent's reference entry averaged 0.65; its copy inside this library read 1.68.

Data: MIT Lincoln Laboratory AlphaSeq set, Engelhart et al. 2022, doi:10.1038/s41597-022-01779-4, as distributed in FLAb.